From ChEMBL document CHEMBL5104090, “Recent advances in the medicinal chemistry of carbonic anhydrase inhibitors” (Eur J Med Chem, 2021)

What was measured:
Carbonic anhydrase 9 [1] = biological target: T1, Carbonic anhydrase 9 (Homo sapiens, UniProt Q16790)
Carbonic anhydrase 9 [2] = biological target: T1, Carbonic anhydrase 9; remark: listed apart in the source

Row | Structure (SMILES) | Ki (Carbonic anhydrase 9 [1]) [nM] | IC50 (Carbonic anhydrase 9 [2]) [nM]
1 | Cc1ccccc1[SeH] | 200 | –
2 | Cc1cccc(C)c1[SeH] | 180 | –
3 | COc1ccccc1[SeH] | 200 | –
4 | NS(=O)(=O)c1ccc(C(=O)N[C@@H]2O[C@H](CO)[C@@H](O)[C@H](O)[C@H]2O)cc1 | – | 650
5 | NS(=O)(=O)c1ccc(C(=O)N[C@@H]2O[C@H](CO)[C@H](O)[C@H](O)[C@H]2O)cc1 | – | 650
